# Measurements as given in US5114935A, “Substituted 6-benzyl-2H-3,4,5,6-tetrahydro-(1,3)-oxazines” (Dr. Karl Thomae GmbH, priority 1989, dated 1992).
# Tested on: opiate receptors
# Assay: Test of Binding to the Opiate Receptor: saturation test with 3H-diprenorphine (Scatchard analysis)
# Conditions: read-out: KD value
structure (smiles),measurement,value
COC12CCC3(CC1C(C)(C)O)C1Cc4ccc(O)c5c4C3(CCN1CC1CC1)C2O5 (stereo not shown),Kd,0.51 nM
